Chains of the proteins cited; added tags and fusions are not shown. Residues count along the entry.
UniProt P13612, 34-1032 limits assumed: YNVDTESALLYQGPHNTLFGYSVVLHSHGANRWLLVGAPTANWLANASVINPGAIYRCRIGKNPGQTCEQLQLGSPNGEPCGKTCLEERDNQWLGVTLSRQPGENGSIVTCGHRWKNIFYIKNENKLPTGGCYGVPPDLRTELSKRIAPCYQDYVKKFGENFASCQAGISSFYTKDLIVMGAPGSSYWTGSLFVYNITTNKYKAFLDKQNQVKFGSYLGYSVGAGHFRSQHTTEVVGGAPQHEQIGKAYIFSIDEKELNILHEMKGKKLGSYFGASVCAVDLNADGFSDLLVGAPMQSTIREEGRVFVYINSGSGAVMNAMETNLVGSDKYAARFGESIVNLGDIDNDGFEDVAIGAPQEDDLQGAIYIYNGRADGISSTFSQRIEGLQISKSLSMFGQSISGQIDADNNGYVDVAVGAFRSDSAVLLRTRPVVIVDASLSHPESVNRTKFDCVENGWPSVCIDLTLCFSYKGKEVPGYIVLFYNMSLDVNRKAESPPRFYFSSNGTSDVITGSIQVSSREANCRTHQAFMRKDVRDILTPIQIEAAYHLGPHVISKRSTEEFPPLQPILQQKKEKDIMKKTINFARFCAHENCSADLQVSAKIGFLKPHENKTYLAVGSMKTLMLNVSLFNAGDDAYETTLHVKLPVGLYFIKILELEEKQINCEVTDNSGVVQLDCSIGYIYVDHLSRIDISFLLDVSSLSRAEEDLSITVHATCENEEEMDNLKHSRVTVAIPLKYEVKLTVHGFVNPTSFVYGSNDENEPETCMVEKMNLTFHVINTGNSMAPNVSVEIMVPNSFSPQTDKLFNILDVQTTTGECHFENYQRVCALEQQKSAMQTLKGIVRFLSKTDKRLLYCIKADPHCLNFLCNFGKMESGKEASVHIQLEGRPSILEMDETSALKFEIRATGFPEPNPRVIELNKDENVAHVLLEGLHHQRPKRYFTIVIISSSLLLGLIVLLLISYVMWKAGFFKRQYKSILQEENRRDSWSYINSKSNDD
UniProt P26010, 20-798 limits assumed: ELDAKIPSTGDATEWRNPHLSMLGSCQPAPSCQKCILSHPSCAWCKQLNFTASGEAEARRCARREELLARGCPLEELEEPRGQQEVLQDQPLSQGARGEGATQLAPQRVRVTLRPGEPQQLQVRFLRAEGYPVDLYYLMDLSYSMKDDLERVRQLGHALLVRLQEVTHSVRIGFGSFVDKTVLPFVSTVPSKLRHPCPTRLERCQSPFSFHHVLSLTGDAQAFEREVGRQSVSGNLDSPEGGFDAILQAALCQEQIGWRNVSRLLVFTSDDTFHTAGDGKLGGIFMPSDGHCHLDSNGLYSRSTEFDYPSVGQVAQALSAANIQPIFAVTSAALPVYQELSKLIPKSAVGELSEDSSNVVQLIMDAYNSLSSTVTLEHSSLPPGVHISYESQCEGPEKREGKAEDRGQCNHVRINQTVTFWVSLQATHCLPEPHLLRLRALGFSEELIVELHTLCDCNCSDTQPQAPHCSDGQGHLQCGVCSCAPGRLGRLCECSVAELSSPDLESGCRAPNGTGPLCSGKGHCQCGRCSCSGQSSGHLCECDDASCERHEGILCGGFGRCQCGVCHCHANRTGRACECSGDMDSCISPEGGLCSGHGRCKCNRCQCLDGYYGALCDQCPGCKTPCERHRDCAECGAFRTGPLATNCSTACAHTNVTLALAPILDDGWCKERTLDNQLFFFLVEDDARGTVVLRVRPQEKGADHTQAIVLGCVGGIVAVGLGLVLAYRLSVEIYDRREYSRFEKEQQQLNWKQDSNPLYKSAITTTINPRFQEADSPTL

In US11116760B2 (Gilead Sciences, Inc., priority 2018, dated 2021):

Molecular target: α4β7 integrin (Homo sapiens (Human), UniProt P13612+P26010)
Experiment: α4β7 Integrin Cell Capture Assay
Conditions: read-out: α4β7 EC50; RPMI8866 cells captured on MadCAM-1 extracellular domain-coated plate

For `CC[C@@H](Nc1cc(C)c(C(=O)N[C@@H](Cc2ccc(-n3c(=O)c4ccncc4n(C)c3=O)c3ncccc23)C(=O)O)c(F)c1)C(F)(F)F` [Example 439], the EC50 was 0.076 nM.
